Test results as given in patent US20050250090A1, “Assay systems and methods for detecting molecules that interact with SK2 channels” (priority 2003, published 2005).

The chains behind the UniProt entries cited, without tags or fusion partners. A line that says so, or that is headed by a name, gives the form on record, which may keep a tag or linker.
UniProt Q9H2S1, with tags, fused parts or gaps DUP58-58: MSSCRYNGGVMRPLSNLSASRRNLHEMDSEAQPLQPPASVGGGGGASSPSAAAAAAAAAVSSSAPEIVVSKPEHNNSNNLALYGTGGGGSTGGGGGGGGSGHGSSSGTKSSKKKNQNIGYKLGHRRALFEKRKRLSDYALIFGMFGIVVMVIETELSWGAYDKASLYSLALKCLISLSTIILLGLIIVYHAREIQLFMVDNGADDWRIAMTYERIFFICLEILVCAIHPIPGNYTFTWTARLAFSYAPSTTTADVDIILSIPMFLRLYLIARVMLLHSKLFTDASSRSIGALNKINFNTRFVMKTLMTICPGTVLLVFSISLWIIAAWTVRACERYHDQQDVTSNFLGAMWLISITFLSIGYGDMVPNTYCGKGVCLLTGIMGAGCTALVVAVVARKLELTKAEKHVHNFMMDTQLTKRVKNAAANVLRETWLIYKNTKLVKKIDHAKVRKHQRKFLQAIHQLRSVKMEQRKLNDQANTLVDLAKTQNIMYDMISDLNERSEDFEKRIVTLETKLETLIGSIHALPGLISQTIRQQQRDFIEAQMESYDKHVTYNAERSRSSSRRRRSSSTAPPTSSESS

Biological target: hSK2A^+ (Homo sapiens, UniProt Q9H2S1, DUP58-58)
Experiment: Membrane potential sensitive dye fluorescence assay (FLIPR384) in tsA201 cells stably expressing SK2

Nc1nc2ccc(OC(F)(F)F)cc2s1 [Riluzole, riluzole]
EC50: 29 µM
nH (hyperpolarization induced by riluzole, FIG. 10): 1.4
